In patent US20260263628A1, “AN ORAL LIQUID COMPOSITION OF VINORELBINE” (INSTITUT GUSTAVE ROUSSY, priority 2022, published 2026):
Counter-ions that a name gives are not always drawn.

Test system: EpiOral® tissue models (normal human epithelial cells of oral phenotype)
Test: MTT viability assay on EpiOral tissue models
Details: second experiment, contact 1 h, 4 h, 18 h

Structure (SMILES): CCC1=C[C@@H]2CN(C1)Cc1c([nH]c3ccccc13)[C@@](C(=O)OC)(c1cc3c(cc1OC)N(C)[C@H]1[C@@](O)(C(=O)OC)[C@H](OC(C)=O)[C@]4(CC)C=CCN5CC[C@]31[C@@H]54)C2 [vinorelbine, vinorelbine ditartrate salt hydrate]
- ET-50 (exposure time at which percent viability has dropped to 50%): about 9.6 h
